Structures are written as SMILES. Some results are limits rather than exact numbers.

Chains of the proteins cited; added tags and fusions are not shown. Residues count along the entry.
UniProt Q00987, 17-125: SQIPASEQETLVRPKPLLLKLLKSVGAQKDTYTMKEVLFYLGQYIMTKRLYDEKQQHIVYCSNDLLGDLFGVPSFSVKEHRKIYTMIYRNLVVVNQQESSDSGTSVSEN

Experimental findings from patent US9637493B2, “Substituted pyrrolopyrimidines as HDM2 inhibitors” (Merck Sharp & Dohme Corp., priority 2012, dated 2017) are described below.

This assay has as its target HDM2 (Homo sapiens (Human), UniProt Q00987). The assay is described as follows: HDM2 FRET assay (inhibition of p53 peptide binding to HDM2). Conditions: truncated HDM2 residues 17 to 125, 0.5 nM; FITC labeled 8-mer peptide 3 nM; two hour incubation at room temperature. As for the experimental part:
Methods: An HDM2 FRET assay was developed to assess the compounds' inhibitory activity towards binding of p53 protein. […] (containing p53 binding surface, Science (1994) 265, 346-355), with N-terminal His and Thioredoxin tag was generated in pET32a expression vector and expressed in E. coli strain BL21(DE3)Rosetta. Protein was purified using Ni-affinity chromatography, followed by size exclusion chromatography using Superdex 75 26/60 column. […] After two hour incubation at room temperature in a humidified chamber plates were read on EnVision plate reader with the following settings: excitation: UV, […], two emission filters: 520 nm and 495 nm respectively. […] IC50 DETERMINATIONS: Dose-response curves were plotted from the inhibition data, from 10 point serial dilutions of inhibitory compounds. Concentration of compound was plotted against em520/Cem495 ratio signal. To generate IC50 values, the dose-response curves were fitted to a standard sigmoidal curve and IC50 values were derived by nonlinear regression analysis.

One may read the IC50 as the concentration that gives 50% inhibition. `CC(F)(c1ncccc1F)c1cc2nc(C(=O)O)nc(-c3cncc(Cl)c3)c2n1C[C@H]1CC[C@H](C)CC1` (single isomer, unassigned) [Example 8.3, 4-(5-chloropyridin-3-yl)-6-[(1R or S)-1-fluoro-1-(3-fluoropyridin-2-yl)ethyl]-5-[(trans-4-methylcyclohexyl)methyl]-5H-pyrrolo[3,2-d]pyrimidine-2-carboxylic acid] registered a 50% inhibitory concentration (IC50) of 8 nM. In other words, the single-digit nanomolar range. The value for `CC(F)(c1ncccc1F)c1cc2nc(C(=O)O)nc(-c3cncc(Cl)c3)c2n1C[C@H]1CC[C@H](C)CC1` (single isomer, unassigned) [Example 8.4, 4-(5-chloropyridin-3-yl)-6-[(1S or R)-1-fluoro-1-(3-fluoropyridin-2-yl)ethyl]-5-[(trans-4-methylcyclohexyl)methyl]-5H-pyrrolo[3,2-d]pyrimidine-2-carboxylic acid] was < 1 nM.
